The target of this data set is T1, human CAR (hCAR) (Homo sapiens, UniProt Q14994).
T1 sequence (Q14994 1-348 isoform Q14994-2): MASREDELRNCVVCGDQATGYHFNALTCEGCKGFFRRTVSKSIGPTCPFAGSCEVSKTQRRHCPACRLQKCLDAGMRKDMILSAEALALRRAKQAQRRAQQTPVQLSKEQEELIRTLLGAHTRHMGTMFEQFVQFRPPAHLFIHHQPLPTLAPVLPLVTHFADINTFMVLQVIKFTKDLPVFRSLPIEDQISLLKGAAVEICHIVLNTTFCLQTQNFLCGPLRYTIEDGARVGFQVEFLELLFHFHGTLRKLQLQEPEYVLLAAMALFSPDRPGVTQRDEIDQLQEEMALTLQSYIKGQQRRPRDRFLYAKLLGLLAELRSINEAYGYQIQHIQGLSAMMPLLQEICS
Description: hCAR luciferase reporter qHTS, antagonist mode (HepG2-CYP2B6-hCAR cells, CITCO co-treatment).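 Also: stable HepG2 line carrying hCAR plus a CYP2B6 promoter (PBREM/XREM) luciferase reporter, 1536-well format, 24 h compound exposure at 37 °C, then luminescence read with ONE-Glo.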 To be noted: follow-up cherry-pick, relative to PK11195 (100%).

Turning to `CC(C)C[C@H](NC(=O)[C@H](Cc1ccccc1)NC(=O)c1cnccn1)B(O)O` [Bortezomib], the “Follow-up Confirmation Efficacy” value is listed as -101%.

The record behind these values is article PMC4438668, “Quantitative High-Throughput Identification of Drugs as Modulators of Human Constitutive Androstane Receptor” (Scientific Reports, 2015).
